Target: mammalian target of rapamycin (mTOR) (Homo sapiens (Human), UniProt P42345)
Settings: read-out: mTOR IC50

Compound COc1ncc(Nc2ncc([C@@H](C)N3CCN(S(C)(=O)=O)C[C@@H]3C)cc2-c2cc(N)nc(C)n2)cc1F [Example 306, 6-(2-((5-fluoro-6-methoxy-3-pyridinyl)amino)-5-((1R)-1-((2S)-2-methyl-4-(methylsulfonyl)-1-piperazinyl)ethyl)-3-pyridinyl)-2-methyl-4-pyrimidinamine] has an IC50 of over 10000 nM.
With Cc1nc(N)cc(-c2nccnc2Nc2cnc(Cl)c(NS(C)(=O)=O)c2)n1 [Example 307, N-(5-((3-(6-amino-2-methyl-4-pyrimidinyl)-2-pyrazinyl)amino)-2-chloro-3-pyridinyl)methanesulfonamide] the IC50 was 3880 nM.
Work on COc1ccc(Nc2ncc(C(C)N3CC(S(C)(=O)=O)C3)cc2-c2nc(C)nc(N)n2)cn1 (stereo not shown) [Example 308, 4-(2-(6-methoxypyridin-3-ylamino)-5-(1-(3-(methylsulfonyl)azetidin-1-yl)ethyl)pyridin-3-yl)-6-methyl-1,3,5-triazin-2-amine 2,2,2-trifluoroacetate] yielded an IC50 of 1890 nM.
In the case of Cc1nc(N)nc(-c2cc([C@@H](C)N3CCN(S(C)(=O)=O)CC3)cnc2Nc2ccc(Cl)nc2)n1 [Example 309, (R)-4-(2-(6-chloropyridin-3-ylamino)-5-(1-(4-(methylsulfonyl)piperazin-1-yl)ethyl)pyridin-3-yl)-6-methyl-1,3,5-triazin-2-amine], the IC50 is reported as 2670 nM.
Compound Cc1nc(N)nc(-c2cc([C@@H](C)N3CCN(S(C)(=O)=O)CC3)cnc2Nc2ccc3cccnc3c2)n1 [Example 310, (R)—N-(3-(4-amino-6-methyl-1,3,5-triazin-2-yl)-5-(1-(4-(methylsulfonyl)piperazin-1-yl)ethyl)pyridin-2-yl)quinolin-7-amine 2,2,2-trifluoroacetate] has an IC50 of 127 nM.
Compound COc1ncc(Nc2ncc(C(C)(C)CO)cc2-c2nc(C)nc(N)n2)cc1F [Example 311, 2-(5-(4-amino-6-methyl-1,3,5-triazin-2-yl)-6-(5-fluoro-6-methoxypyridin-3-ylamino)pyridin-3-yl)-2-methylpropan-1-ol] has an IC50 of over 10000 nM.
Work on COc1ncc(Nc2ncc(C(C)CO)cc2-c2nc(C)nc(N)n2)cc1F (stereo not shown) [Example 312, 2-(5-(4-amino-6-methyl-1,3,5-triazin-2-yl)-6-(5-fluoro-6-methoxypyridin-3-ylamino)pyridin-3-yl)propan-1-ol] yielded an IC50 of over 10000 nM.
With COc1ncc(Nc2ncc(CN3CCN(S(C)(=O)=O)CC3C(F)(F)F)cc2-c2nc(C)nc(N)n2)cc1F (stereo not shown) [Example 313, 4-(2-(5-Fluoro-6-Methoxypyridin-3-Ylamino)-5-((4-(Methylsulfonyl)-2-(Trifluoromethyl)Piperazin-1-yl)Methyl)Pyridin-3-yl)-6-Methyl-1,3,5-Triazin-2-Amine] the IC50 was over 10000 nM.
In the case of COc1ncc(Nc2ncc(C(O)C(F)(F)F)cc2-c2nc(C)nc(N)n2)cc1F (stereo not shown) [Example 314, 1-(5-(4-Amino-6-Methyl-1,3,5-Triazin-2-yl)-6-(5-Fluoro-6-Methoxypyridin-3-Ylamino)Pyridin-3-yl)-2,2,2-Trifluoroethanol], the IC50 is reported as 2230 nM.
In the case of COc1ncc(Nc2ncc(CN3CCOC[C@@H]3C)cc2-c2nc(C)nc(N)n2)cc1F [Example 315, (S)-4-(2-(5-Fluoro-6-Methoxypyridin-3-Ylamino)-5-((3-Methylmorpholino)Methyl)Pyridin-3-yl)-6-Methyl-1,3,5-Triazin-2-Amine], the IC50 is reported as over 10000 nM.
With COc1cc(Nc2ncc(CN3CCN(S(C)(=O)=O)C[C@@H]3C)cc2-c2nc(C)nc(N)n2)cnc1Cl [Example 317, (S)-4-(2-(6-Chloro-5-Methoxypyridin-3-Ylamino)-5-((2-Methyl-4-(Methylsulfonyl)Piperazin-1-yl)Methyl)Pyridin-3-yl)-6-Methyl-1,3,5-Triazin-2-Amine] the IC50 was over 10000 nM.
Cc1nc(N)nc(-c2cc(CN3CCN(S(C)(=O)=O)C[C@@H]3C)cnc2Nc2ccc(Cl)nc2)n1 [Example 318, (S)-4-(2-(6-Chloropyridin-3-Ylamino)-5-((2-Methyl-4-(Methylsulfonyl)Piperazin-1-yl)Methyl)Pyridin-3-yl)-6-Methyl-1,3,5-Triazin-2-Amine] gave an IC50 of over 10000 nM.
COc1ncc(Nc2ncc(CN3CCN(S(C)(=O)=O)C[C@@H]3C)cc2-c2nc(C)nc(N)n2)cn1 [Example 319, (S)-4-(2-(2-Methoxypyrimidin-5-Ylamino)-5-((2-Methyl-4-(Methylsulfonyl)Piperazin-1-yl)Methyl)Pyridin-3-yl)-6-Methyl-1,3,5-Triazin-2-Amine] was tested, and the IC50 was 1580 nM.
COc1ccc(Nc2ncc(C(C)(O)C(F)(F)F)cc2-c2nc(C)nc(N)n2)cn1 (stereo not shown) [Example 320, 2-(5-(4-amino-6-methyl-1,3,5-triazin-2-yl)-6-(6-methoxypyridin-3-ylamino)pyridin-3-yl)-1,1,1-trifluoropropan-2-ol] showed an IC50 of 263 nM.
Compound COc1ccc(Nc2ncc(C(N3CCN(S(C)(=O)=O)CC3)C(F)(F)F)cc2-c2nc(C)nc(N)n2)cn1 (stereo not shown) [Example 321, 4-(2-(6-Methoxypyridin-3-Ylamino)-5-(2,2,2-Trifluoro-1-(4-(Methylsulfonyl)Piperazin-1-yl)Ethyl)Pyridin-3-yl)-6-Methyl-1,3,5-Triazin-2-Amine] has an IC50 of 3090 nM.
COc1ccc(Nc2ncc([C@@H](O)C(F)(F)F)cc2-c2nc(C)nc(N)n2)cn1 [Example 322, (R)-1-(5-(4-amino-6-methyl-1,3,5-triazin-2-yl)-6-(6-methoxypyridin-3-ylamino)pyridin-3-yl)-2,2,2-trifluoroethanol] was tested, and the IC50 was 599 nM.
In the case of COc1ccc(Nc2ncc([C@H](O)C(F)(F)F)cc2-c2nc(C)nc(N)n2)cn1 [Example 323, (S)-1-(5-(4-amino-6-methyl-1,3,5-triazin-2-yl)-6-(6-methoxypyridin-3-ylamino)pyridin-3-yl)-2,2,2-trifluoroethanol], the IC50 is reported as 379 nM.
With COc1ccc(Nc2ncc(C(N)C(F)(F)F)cc2-c2nc(C)nc(N)n2)cn1 (stereo not shown) [Example 324, 4-(5-(1-Amino-2,2,2-Trifluoroethyl)-2-(6-Methoxypyridin-3-Ylamino)Pyridin-3-yl)-6-Methyl-1,3,5-Triazin-2-Amine] the IC50 was 1080 nM.
For Cc1nc(N)nc(-c2cc(CN3CCN(S(C)(=O)=O)CC3)cnc2Nc2ccc3ccncc3c2)n1 [Example 326, N-(3-(4-Amino-6-Methyl-1,3,5-Triazin-2-yl)-5-((4-(Methylsulfonyl)Piperazin-1-yl)Methyl)Pyridin-2-yl)Isoquinolin-7-Amine], the IC50 was over 10000 nM.
For COc1ncc(Nc2ncc(C(C)N)cc2-c2nc(C)nc(N)n2)cc1F (stereo not shown) [Example 327, 4-(5-(1-Aminoethyl)-2-(5-Fluoro-6-Methoxypyridin-3-Ylamino)Pyridin-3-yl)-6-Methyl-1,3,5-Triazin-2-Amine], the IC50 was 917 nM.
With Cc1nc(N)nc(-c2cc(C3CCOCC3)cnc2Nc2cnc(Cl)c(NS(C)(=O)=O)c2)n1 [Example 328, N-(5-(3-(4-Amino-6-Methyl-1,3,5-Triazin-2-yl)-5-(Tetrahydro-2H-Pyran-4-yl)Pyridin-2-Ylamino)-2-Chloropyridin-3-yl)Methanesulfonamide] the IC50 was 26 nM.
With COc1ncc(Nc2ncc(Cl)cc2-c2nc(C)nc(N)n2)cc1NS(C)(=O)=O [Example 329, N-(5-(3-(4-Amino-6-Methyl-1,3,5-Triazin-2-yl)-5-Chloropyridin-2-Ylamino)-2-Methoxypyridin-3-yl)Methanesulfonamide] the IC50 was over 10000 nM.
For COc1cnc(Nc2cnc(Cl)c(NS(=O)(=O)N(C)C)c2)c(-c2nc(C)nc(N)n2)c1 [Example 331, N′-(5-((3-(4-Amino-6-Methyl-1,3,5-Triazin-2-yl)-5-Methoxy-2-Pyridinyl)Amino)-2-Chloro-3-Pyridinyl)-N,N-Dimethylsulfamide], the IC50 was 64 nM.
Cc1nc(N)nc(-c2cc(CN3CCOCC3)cnc2Nc2cnc(Cl)c(NS(C)(=O)=O)c2)n1 [Example 332, N-(5-(3-(4-Amino-6-Methyl-1,3,5-Triazin-2-yl)-5-(Morpholinomethyl)Pyridin-2-Ylamino)-2-Chloropyridin-3-yl)Methanesulfonamide] gave an IC50 of 154 nM.
COCCOc1cnc(Nc2cnc(Cl)c(NS(C)(=O)=O)c2)c(-c2nc(C)nc(N)n2)c1 [Example 335, N-(5-(3-(4-Amino-6-Methyl-1,3,5-Triazin-2-yl)-5-(2-Methoxyethoxy)Pyridin-2-Ylamino)-2-Chloropyridin-3-yl)Methanesulfonamide] showed an IC50 of 51 nM.
Compound COCCOc1cnc(Nc2cnc(OC)c(NS(C)(=O)=O)c2)c(-c2nc(C)nc(N)n2)c1 [Example 336, N-(5-(3-(4-Amino-6-Methyl-1,3,5-Triazin-2-yl)-5-(2-Methoxyethoxy)Pyridin-2-Ylamino)-2-Methoxypyridin-3-yl)Methanesulfonamide] has an IC50 of 1420 nM.
Compound COc1ncc(Nc2ncc(CN3CCOCC3)cc2-c2nc(C)nc(N)n2)cc1NS(C)(=O)=O [Example 337, N-(5-(3-(4-Amino-6-Methyl-1,3,5-Triazin-2-yl)-5-(Morpholinomethyl)Pyridin-2-Ylamino)-2-Methoxypyridin-3-yl)Methanesulfonamide] has an IC50 of over 10000 nM.
Cc1nc(-c2cccnc2Nc2cnc(Cl)c(NS(C)(=O)=O)c2)c2nc[nH]c2n1 [Example 338, N-(2-Chloro-5-(3-(2-Methyl-9H-Purin-6-yl)Pyridin-2-Ylamino)Pyridin-3-yl)Methanesulfonamide] gave an IC50 of 17 nM.
In the case of Cc1nc(-c2cc(C(C)N3CCOCC3)cnc2Nc2cnc(Cl)c(NS(C)(=O)=O)c2)c2nc[nH]c2n1 (stereo not shown) [Example 339, N-(2-Chloro-5-(3-(2-Methyl-9H-Purin-6-yl)-5-(1-Morpholinoethyl)Pyridin-2-Ylamino)Pyridin-3-yl)Methanesulfonamide], the IC50 is reported as 46 nM.
For Cc1nc(-c2cc(C(C)N3CCOCC3)cnc2Nc2cnc(Cl)c(NS(=O)(=O)N(C)C)c2)c2nc[nH]c2n1 (stereo not shown) [Example 340, N′-(2-Chloro-5-((3-(2-Methyl-9H-Purin-6-yl)-5-(1-(4-Morpholinyl)Ethyl)-2-Pyridinyl)Amino)-3-Pyridinyl)-N,N-Dimethylsulfamide], the IC50 was 81 nM.
COc1cc(Nc2ncc([C@@H](C)N3CCN(S(C)(=O)=O)CC3)cc2-c2nc(C)nc(N)n2)cnc1Cl [Example 341, (R)-4-(2-(6-Chloro-5-Methoxypyridin-3-Ylamino)-5-(1-(4-(Methylsulfonyl)Piperazin-1-yl)Ethyl)Pyridin-3-yl)-6-Methyl-1,3,5-Triazin-2-Amine] showed an IC50 of over 10000 nM.

Reference: US8772480B2, “Inhibitors of PI3 kinase and/or mTOR” (priority 2009, dated 2014)
